The values below are quoted from earlier work in patent publication US10537521B2 (priority 2016, dated 2020).

The chains behind the UniProt entries cited, without tags or fusion partners.
UniProt P35372, whole entry: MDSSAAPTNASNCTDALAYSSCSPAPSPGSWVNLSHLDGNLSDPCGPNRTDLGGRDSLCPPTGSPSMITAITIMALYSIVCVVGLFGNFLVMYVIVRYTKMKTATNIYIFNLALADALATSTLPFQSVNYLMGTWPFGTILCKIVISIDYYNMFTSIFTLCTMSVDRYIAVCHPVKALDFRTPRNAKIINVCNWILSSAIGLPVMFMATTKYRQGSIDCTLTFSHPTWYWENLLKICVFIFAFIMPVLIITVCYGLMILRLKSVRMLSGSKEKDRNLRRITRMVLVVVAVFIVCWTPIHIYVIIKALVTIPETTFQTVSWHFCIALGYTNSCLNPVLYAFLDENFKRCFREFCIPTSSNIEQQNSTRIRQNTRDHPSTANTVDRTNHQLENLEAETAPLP

The structures appear in SMILES notation.

In series [1] the target is T1, μ-opioid (Homo sapiens, UniProt P35372). The conditions noted are these: cited from earlier work.
Series [2] addresses T1, μ-opioid. The settings on record: cited from earlier work. The source holds these as a separate data set.

As for `COc1cccc([C@@]2(O)CCCC[C@@H]2CN(C)C)c1` [(+)-Tramadol], in series [1], the μ-opioid activity entry is on record as “weak μ-opioid activity”.
As for `CN(C)C[C@H]1CCCC[C@]1(O)c1cccc(O)c1` [O-desmethyltramadol], the “affinity to the μ opioid receptor compared with tramadol” value in series [2] is given as “higher affinity”.
